One molecule from patent US20220409722A1, “FENTANYL HAPTEN, FENTANYL HAPTEN-CONJUGATES, AND METHODS FOR MAKING AND USING” (published 2022) can be followed below.

In experiment [1] the test system is Sprague Dawley rats. Briefly: Hotplate and oximeter after cumulative s.c. fentanyl in immunized rats, Experiment 4. Conditions: naloxone 0.1 mg/kg s.c.
Experiment [2] has as its system Sprague Dawley rats. Nature of the experiment: Fentanyl dose-response on hotplate and oximeter in non-immunized rats, Experiment 3. Conditions: naloxone 0.1 mg/kg s.c. after final fentanyl dose.

For the molecule `C=CCN1CC[C@]23c4c5ccc(O)c4O[C@H]2C(=O)CC[C@@]3(O)[C@H]1C5`, in the experiment on Sprague Dawley rats [1] (F-sKLH vaccinated group (not in controls)), the “naloxone reversal of fentanyl-induced % SaO2” value is listed as “completely reversed”. For the same molecule, in the experiment with Sprague Dawley rats [1] (both groups), the “naloxone reversal of fentanyl-induced bradycardia” value is “completely reversed”. In addition, in the experiment with Sprague Dawley rats [2], the “reversal of fentanyl-induced % SaO2 decrease” value is reported as “reversed % SaO2 levels to baseline values”, the “reversal of fentanyl-induced heart rate decrease” value is “did not reverse BPM back to baseline” and the “reversal of fentanyl-induced hotplate latency” value is given as “returned latencies to respond on the hotplate back to baseline levels”.
